Where two headings read alike, the source gives them in different places.
System: cannabinoid CB1 binding sites
Conditions: 10 nM radioligand; for binding of [^3H]SR141716A: n=4

Cc1c(C(=O)NN2CCCCC2)nn(-c2ccc(Cl)cc2Cl)c1-c1ccc(Cl)cc1 [[^3H]SR141716A]
binding of [^3H]SR141716A as % of the radioactivity added to each assay (absence of 3 μM CP55,940): 4.64±0.13%
binding of [^3H]SR141716A (absence of 3 μM CP55,940): 84.1±4.8 fmol/mg protein
binding of [^3H]SR141716A as % of the radioactivity added to each assay (presence of 3 μM CP55,940): 4.71±0.12%
binding of [^3H]SR141716A (presence of 3 μM CP55,940): 85.2±4.1 fmol/mg protein

From US20050232860A1, “Use of edg-receptor agonists for the treatment of hypertension” (priority 2001, published 2005)
